For orientation: EC50 means the concentration giving half of the maximal effect.

By UniProt entry, the sequences of proteins in these tests, tags left out. Residues count along the entry.
UniProt Q99835, 28-787 limits assumed: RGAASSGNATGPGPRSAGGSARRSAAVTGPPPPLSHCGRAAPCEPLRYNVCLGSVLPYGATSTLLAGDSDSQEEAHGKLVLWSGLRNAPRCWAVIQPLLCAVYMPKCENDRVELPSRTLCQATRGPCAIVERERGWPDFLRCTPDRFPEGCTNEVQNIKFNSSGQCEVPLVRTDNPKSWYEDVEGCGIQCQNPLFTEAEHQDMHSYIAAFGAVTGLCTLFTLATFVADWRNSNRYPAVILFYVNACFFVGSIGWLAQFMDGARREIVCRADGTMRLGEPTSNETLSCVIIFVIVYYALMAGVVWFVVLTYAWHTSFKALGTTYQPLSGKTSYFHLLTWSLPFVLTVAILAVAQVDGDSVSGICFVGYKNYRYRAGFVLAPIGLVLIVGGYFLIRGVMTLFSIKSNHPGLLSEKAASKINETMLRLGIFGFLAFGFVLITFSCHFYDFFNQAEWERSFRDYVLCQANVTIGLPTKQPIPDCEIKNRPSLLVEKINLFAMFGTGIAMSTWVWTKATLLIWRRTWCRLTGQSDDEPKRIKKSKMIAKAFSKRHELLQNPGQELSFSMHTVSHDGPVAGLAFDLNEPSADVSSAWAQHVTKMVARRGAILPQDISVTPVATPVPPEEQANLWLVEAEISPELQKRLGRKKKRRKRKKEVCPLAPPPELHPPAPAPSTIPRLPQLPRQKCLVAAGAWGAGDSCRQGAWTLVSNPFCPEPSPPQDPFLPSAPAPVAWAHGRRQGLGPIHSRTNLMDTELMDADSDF

The record followed here is patent publication US20130274233A1, “MODULATORS OF HEDGEHOG SIGNALING PATHWAY” (priority 2012, published 2013).

This test concerns the target Smo::EGFP (Homo sapiens, UniProt Q99835). Description: High content assay of Shh-induced Smo::EGFP accumulation in the primary cilium (Smo::EGFP/Ivs::tagRFPT NIH/3T3 cells). The format is cell-based. The settings on record: Smo::EGFP/Ivs::tagRFPT cells primed with compounds for 3 hours before adding Shh; for EC50: read-out: EC50, inhibitory activity of Smo cilial localization induced by Shh (SAR assays).

Consider `CCCCN(C)CCC(=O)Nc1ccc(Br)cc1`, for which the EC50 turned out to be 18.6 µM.
For `CN(CCC(=O)Nc1ccccc1)Cc1ccccc1`, the 50% effective concentration (EC50) turned out to be 32.8 µM.
The same measure, in the same setting: in the case of `CN(CCC(=O)Nc1ccc(Br)cc1)Cc1ccccc1` it was 2.28 µM.
For `O=C(CCN1CCCC1)Nc1ccc(Br)cc1`, the “Smo antagonist activity in SAR assays” value is “retained, but weaker, Smo antagonistic activity” and the EC50 came out at 6.22 µM.
